In brackets after ≈: the same amount, converted by molar mass.
Each compound was assayed on 11 clinically relevant bacterial pathogens (assay: MIC over the panel of pathogens). Settings: Table S17; lowest MIC over the strains tested.
Assay type: cell-based

Going from `CC[C@H](C)[C@H](NC(=O)[C@H](CC(N)=O)NC(=O)[C@H](CCCCN)NC(=O)[C@H](CCCNC(=N)N)NC(=O)[C@H](Cc1ccccc1)NC(=O)[C@@H](NC(=O)[C@H](CC(C)C)NC(=O)[C@H](CCCNC(=N)N)NC(=O)[C@H](CCCNC(=N)N)NC(=O)CNC(=O)[C@H](CCCNC(=N)N)NC(=O)[C@H](C)NC(=O)[C@H](CCCNC(=N)N)NC(=O)[C@@H](NC(=O)[C@H](CC(C)C)NC(=O)[C@H](CO)NC(=O)[C@H](Cc1ccc(O)cc1)NC(=O)[C@@H](NC(=O)[C@H](CCCNC(=N)N)NC(=O)[C@H](CS)NC(=O)[C@H](Cc1ccc(O)cc1)NC(=O)[C@@H](N)CC(C)C)[C@@H](C)CC)C(C)C)[C@@H](C)O)C(=O)N[C@@H](CO)C(=O)N[C@@H](CCCCN)C(=O)O` [Hydrodamin-1] to `CC[C@H](C)[C@H](NC(=O)[C@@H](NC(=O)[C@H](CCCCN)NC(=O)[C@H](CCCCN)NC(=O)[C@H](CCCCN)NC(=O)[C@H](CCCCN)NC(=O)[C@H](CC(C)C)NC(=O)CNC(=O)[C@H](CCC(N)=O)NC(=O)[C@@H](NC(=O)[C@H](Cc1ccc(O)cc1)NC(=O)[C@H](CCCNC(=N)N)NC(=O)[C@@H](NC(=O)[C@H](CC(C)C)NC(=O)[C@H](CC(N)=O)NC(=O)[C@H](CCCNC(=N)N)NC(=O)[C@H](C)NC(=O)[C@H](CCSC)NC(=O)[C@@H](N)CCCNC(=N)N)C(C)C)C(C)C)C(C)C)C(=O)O` [Hydrodamin-2], the “MIC (lowest MIC value obtained in the antimicrobial activity assays)” value (from here on “MIC”) rises from 4000 mM (≈ 11900 mg/mL) to 8000 mM (≈ 18400 mg/mL) (2-fold).

First: CC[C@H](C)[C@H](NC(=O)CNC(=O)[C@@H](NC(=O)[C@@H]1CCCN1C(=O)[C@@H](NC(=O)[C@@H](NC(=O)[C@@H](NC(=O)[C@@H](NC(=O)[C@H](CCCCN)NC(=O)[C@H](CCCCN)NC(=O)[C@H](CCCCN)NC(=O)[C@H](CCCCN)NC(=O)[C@H](CC(C)C)NC(=O)CNC(=O)[C@H](CCC(N)=O)NC(=O)[C@@H](NC(=O)[C@H](Cc1ccc(O)cc1)NC(=O)[C@H](CCCNC(=N)N)NC(=O)[C@@H](NC(=O)[C@H](CC(C)C)NC(=O)[C@H](CC(N)=O)NC(=O)[C@@H](N)CCCNC(=N)N)C(C)C)C(C)C)C(C)C)[C@@H](C)CC)C(C)C)[C@@H](C)CC)C(C)C)C(=O)NCC(=O)N1CCC[C@H]1C(=O)N[C@@H](Cc1c[nH]cn1)C(=O)N[C@@H](C)C(=O)N[C@@H](CC(N)=O)C(=O)N[C@H](C(=O)N[C@@H](CCCCN)C(=O)O)[C@@H](C)CC [Hydrodamin-3]
Second: CC(C)C[C@H](NC(=O)CNC(=O)[C@H](CCCNC(=N)N)NC(=O)[C@H](CCCCN)NC(=O)[C@@H](N)CCCNC(=N)N)C(=O)N[C@@H](CCCCN)C(=O)N[C@@H](CC(C)C)C(=O)N[C@@H](C)C(=O)N[C@H](C(=O)N[C@@H](C)C(=O)N[C@@H](CC(C)C)C(=O)N[C@@H](CO)C(=O)N[C@@H](CC(C)C)C(=O)N[C@@H](CC(N)=O)C(=O)N[C@@H](CC(N)=O)C(=O)N[C@@H](CCCCN)C(=O)N[C@@H](Cc1ccccc1)C(=O)N[C@H](C(=O)O)C(C)C)[C@@H](C)O [Mylodonin-4]
The “MIC” value of the first is 2-fold lower: 16000 mM (≈ 51800 mg/mL) for the first, 32000 mM (≈ 64900 mg/mL) for the second.

With `CC[C@H](C)[C@H](N)C(=O)N[C@@H](Cc1ccccc1)C(=O)N[C@@H](CO)C(=O)N[C@@H](CC(C)C)C(=O)N[C@@H](Cc1c[nH]cn1)C(=O)N[C@@H](CC(C)C)C(=O)N[C@@H](C)C(=O)NCC(=O)N[C@H](C(=O)N[C@@H](CO)C(=O)N[C@@H](CO)C(=O)N[C@H](C(=O)N[C@@H](CC(C)C)C(=O)O)[C@@H](C)CC)[C@@H](C)CC` [Ursusin-1] the “MIC” value was 64000 mM (≈ 87700 mg/mL).

What follows are compounds tested on A. baumannii ATCC 19606 (assay: MIC, broth microdilution). Settings: broth microdilution in LB, 20 h at 37 °C, OD600; mean of three replicates.
Assay type: cell-based, Acinetobacter baumannii

For `CC[C@H](C)[C@H](NC(=O)[C@H](CC(N)=O)NC(=O)[C@H](CCCCN)NC(=O)[C@H](CCCNC(=N)N)NC(=O)[C@H](Cc1ccccc1)NC(=O)[C@@H](NC(=O)[C@H](CC(C)C)NC(=O)[C@H](CCCNC(=N)N)NC(=O)[C@H](CCCNC(=N)N)NC(=O)CNC(=O)[C@H](CCCNC(=N)N)NC(=O)[C@H](C)NC(=O)[C@H](CCCNC(=N)N)NC(=O)[C@@H](NC(=O)[C@H](CC(C)C)NC(=O)[C@H](CO)NC(=O)[C@H](Cc1ccc(O)cc1)NC(=O)[C@@H](NC(=O)[C@H](CCCNC(=N)N)NC(=O)[C@H](CS)NC(=O)[C@H](Cc1ccc(O)cc1)NC(=O)[C@@H](N)CC(C)C)[C@@H](C)CC)C(C)C)[C@@H](C)O)C(=O)N[C@@H](CO)C(=O)N[C@@H](CCCCN)C(=O)O` [Hydrodamin-1], the “Minimal Inhibitory Concentration: A. baumannii ATCC19606” value was 4 µmol/L.

Source: doi:10.1101/2023.10.01.560353v1 (bioRxiv, 2023)
